Measurements: patent publication US9907800B2, “Kinase inhibitors and method of treating cancer” (University Health Network, priority 2010, dated 2018)

Protein sequences, listed by entry. Tags and fused reporters are not part of them. Residues count along the entry.
UniProt O00444, 1-391 limits assumed: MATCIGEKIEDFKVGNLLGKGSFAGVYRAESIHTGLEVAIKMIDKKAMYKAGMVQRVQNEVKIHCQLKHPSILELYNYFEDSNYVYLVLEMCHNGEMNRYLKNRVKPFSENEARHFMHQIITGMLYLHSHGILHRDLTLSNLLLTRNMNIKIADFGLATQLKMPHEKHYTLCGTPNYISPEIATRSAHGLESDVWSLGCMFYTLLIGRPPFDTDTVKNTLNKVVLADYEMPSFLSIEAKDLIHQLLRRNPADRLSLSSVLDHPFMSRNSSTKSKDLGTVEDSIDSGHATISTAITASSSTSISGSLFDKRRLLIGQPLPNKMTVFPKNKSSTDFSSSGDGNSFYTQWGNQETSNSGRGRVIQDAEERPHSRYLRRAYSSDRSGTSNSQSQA

Molecular target: human PLK4 (Homo sapiens (Human), UniProt O00444)
Assay: PLK4 inhibition assay (indirect ELISA)
Format: biochemical
Settings: read-out: PLK4 IC50 Ranges

**Q.** For `O=C1Nc2ccccc2[C@]12CC2c1ccc2c(I)n[nH]c2c1` (relative stereo), which IC50 is on record?
**A.** 100 to 1000 nM
